Literature values in patent US12618845B2, “Methods and compositions for protein sequencing” (Quantum-Si Incorporated, priority 2018, dated 2026).
“Also recorded” adds a separate entry of the source.

Test system: amino acid at a terminal position of a polypeptide
Conditions: amino acid identity at a terminal position of a polypeptide; phospho-Y also at an internal position; cited from earlier work

In the case of “H. sapiens p62 protein: amino acid recognition protein, SEQ ID NO: 29”, the “Binding Pref.” value is given as “K, R, H,; also recorded: W, F, Y”.
